{"sequences": {"note": "The chains behind the UniProt entries cited, without tags or fusion partners. Residues count along the entry.", "UniProt P56817, 22-454": "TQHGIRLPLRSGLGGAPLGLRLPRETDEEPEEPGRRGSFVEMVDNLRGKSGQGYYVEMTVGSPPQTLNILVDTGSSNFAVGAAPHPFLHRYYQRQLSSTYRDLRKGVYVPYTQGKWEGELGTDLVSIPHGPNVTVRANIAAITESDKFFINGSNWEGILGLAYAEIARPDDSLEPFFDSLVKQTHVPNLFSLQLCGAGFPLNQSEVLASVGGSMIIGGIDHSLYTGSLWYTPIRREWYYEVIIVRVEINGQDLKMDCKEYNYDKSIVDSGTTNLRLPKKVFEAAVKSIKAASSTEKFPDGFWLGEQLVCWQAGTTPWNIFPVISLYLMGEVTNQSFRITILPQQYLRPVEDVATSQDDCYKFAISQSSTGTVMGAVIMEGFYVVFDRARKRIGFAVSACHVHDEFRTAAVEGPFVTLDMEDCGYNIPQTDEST"}, "source": "patent US9018391B2", "about": "“Inhibitors of beta-secretase” (Boehringer Ingelheim International GmbH, priority 2012, dated 2015)", "molecular_target": "truncated human beta-secretase, BACE1 (amino acids 1-454) (Homo sapiens (Human), UniProt P56817)", "assay": "BACE1 Assay (Assay 1), fluorescence quench assay", "type": "biochemical", "conditions": "pH 4.4", "description": "The substrate was dissolved at 1 mg/ml in DMSO.\nThe assay was performed in the presence of OptiMEM™ (supernatant collected over 24 h and cleared from cellular debris by centrifugation) containing the ectodomain of BACE1, 25 μl water containing the desired 2-fold concentration of test compound and 2% DMSO, 1 μM substrate peptide, 20 mM NaOAc, pH 4.4, and 0.04% Triton-X100 in a total assay volume of 50 μl in a 384 well plate. In general, 25 μl of compound dilution were added to the plate followed by the addition of 10 μl of BACE1 containing OptiMEM™ diluted 1:10 in water with 0.2% Triton X-100. The reaction was started with the addition of 15 μl substrate in NaOAc buffer. The reaction was incubated at rt (dark) in an Envision® multilabel reader (Perkin Elmer) and the cleavage of the substrate was recorded as kinetic for […] at ex: 485 nm, em: 538 nm. Blank wells containing no enzyme were included on each plate.\nThe intensity of fluorescence was regressed against time in order to derive velocities of reaction in all 384 wells. These velocities were used for calculating percent control using an uninhibited control containing 1% DMSO as 100% and a blank control performed in the absence of enzyme as 0%. IC50 values were calculated by fitting percent control vs. test compound concentration using Assay Explorer®.", "data": [{"smiles": "COC1CCC2(CC1)Cc1ccc(C#N)cc1[C@]21N=C(N)N(C)C1=O", "note": "(stereo partly shown) [drawing 10, reference compound]", "values": [{"measurement": "IC50", "result": 16, "unit": "nM"}]}]}
